Measurements reported in PubChem BioAssay AID602393 (Broad Institute, 2012).
This is a selection; strong and weak results do not stand in their true shares. Active and inactive are the calls of the source. Rule as the data show it: active = activation above about 40%; inconclusive = no clear call, values can overlap the other calls; inactive = below that.

Assay: Bmi1 luciferase reporter increase in mESCs, primary screen, esBAF inhibitor project, mouse ES cells, Bmi1 luciferase knock-in, single point (AID 602393);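 also: 0% = median of the plate's neutral control wells and 100% = double that signal; a rise in the Bmi1 reporter signal indicates esBAF inhibition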
Settings: 24 h, at 12.5 µM, active compounds read high, 100% = twice the neutral-well signal

Compound | reporter increase
CCC(=O)N(c1ccccc1)C1(COC)CCN(CCc2cccs2)CC1 | inactive: -0.969%
CCC(=O)N(c1ccccc1)C1(COC)CCN(CCn2nnn(CC)c2=O)CC1 | inactive: 5.02%
